Test results reported in paper PMC11938014, “Development and Application of Small Molecule–Peptide Conjugates as Cathepsin K-Specific Covalent Irreversible Inhibitors in Human Osteoclast and Lung Cancer” (JACS Au, 2025).

By UniProt entry, the sequences of proteins in these tests, tags left out. Residues count along the entry.
UniProt P43235, 115-329 limits assumed: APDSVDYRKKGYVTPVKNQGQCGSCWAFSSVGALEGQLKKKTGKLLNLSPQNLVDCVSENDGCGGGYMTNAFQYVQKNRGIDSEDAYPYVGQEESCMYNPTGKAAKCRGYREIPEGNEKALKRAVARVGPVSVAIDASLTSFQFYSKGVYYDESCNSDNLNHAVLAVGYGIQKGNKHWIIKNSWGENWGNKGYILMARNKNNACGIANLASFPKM
UniProt P07711, 114-333 limits assumed: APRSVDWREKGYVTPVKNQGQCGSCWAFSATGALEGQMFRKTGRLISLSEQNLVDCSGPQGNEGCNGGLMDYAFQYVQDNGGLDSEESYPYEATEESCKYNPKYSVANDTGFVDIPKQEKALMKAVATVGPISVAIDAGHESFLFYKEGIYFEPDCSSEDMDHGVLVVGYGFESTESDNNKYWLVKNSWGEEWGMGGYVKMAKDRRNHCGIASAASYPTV

Tests used:
Experiment in all cases: Recombinant cathepsin inhibition, gel-based competition with GB123 probe
Format in all cases: biochemical
[1] = molecular target: Recombinant human cathepsin K (Homo sapiens, UniProt P43235); details: for potency and selectivity toward CTSK and other cathepsins, in words: in-gel fluorescence, GB123; for IC50: read-out: CTSK (IC50), Table S2, three independent competition gel-based experiments
[2] = molecular target: Recombinant human cathepsin B (Homo sapiens, UniProt P07858); details: read-out: CTSB (IC50); Table S2; three independent competition gel-based experiments
[3] = molecular target: Recombinant human cathepsin L (Homo sapiens, UniProt P07711); details: read-out: CTSL (IC50); Table S2; three independent competition gel-based experiments

Question: CC(C)C[C@H](NC(=O)OCC1c2ccccc2-c2ccccc21)C(=O)N1CCC[C@H]1C(=O)NCC(=O)OCC(=O)[C@H](CCCCNC(=O)OC(C)(C)C)NC(=O)[C@@H]1CCCN1C(=O)CNC(=O)OCc1ccccc1 was tested. Which “potency and selectivity toward CTSK and other cathepsins, in words” value [1] did it give?
Answer: very low potency and no selectivity

Question: What about the IC50 [1] of the same compound?
Answer: 5.4 µM

Question: And the IC50 [2]?
Answer: > 5 µM

Question: And the IC50 [3]?
Answer: > 5 µM

Question: How did the “potency and selectivity toward CTSK and other cathepsins, in words” value [1] turn out when NCC(=O)N[C@@H](Cc1cnc[nH]1)C(=O)N1CCC[C@H]1C(=O)NCC(=O)COC(=O)[C@@H]1CCCN1C(=O)[C@H](CCC(N)=O)NC(=O)OCC1c2ccccc2-c2ccccc21 was run?
Answer: very low potency and no selectivity

Question: What about the IC50 [1] of the same compound?
Answer: > 5 µM

Question: What about the IC50 [2] of the same compound?
Answer: 4 µM

Question: What about the IC50 [3] of the same compound?
Answer: 3.1 µM

Question: Which “potency and selectivity toward CTSK and other cathepsins, in words” value [1] does the source give for CC(C)C[C@H](NC(=O)OCC1c2ccccc2-c2ccccc21)C(=O)N1CCC[C@H]1C(=O)OCC(=O)CNC(=O)[C@@H]1CCCN1C(=O)[C@H](Cc1cnc[nH]1)NC(=O)CN here?
Answer: very low potency and no selectivity

Question: What about the IC50 [1] of the same compound?
Answer: > 5 µM

Question: And the IC50 [2]?
Answer: 0.69 µM

Question: And the IC50 [3]?
Answer: 0.69 µM

Question: Which results are given for O=C(NCC(=O)N1CCC[C@H]1C(=O)NCC(O)(CSc1c(F)c(F)cc(F)c1F)Sc1c(F)c(F)cc(F)c1F)OCc1ccccc1 (stereo partly shown)?
Answer: IC50 [1]: 2 µM; IC50 [2]: > 5 µM; IC50 [3]: > 5 µM

Question: Which results are given for NCCCC[C@H](NC(=O)[C@H](Cc1ccccc1)NC(=O)OCc1ccccc1)C(O)(CSc1c(F)c(F)cc(F)c1F)Sc1c(F)c(F)cc(F)c1F (stereo partly shown)?
Answer: IC50 [1]: 8.3 µM; IC50 [2]: 5.2 µM; IC50 [3]: > 5 µM

Question: What does the source list for NCC(=O)N[C@@H](Cc1cnc[nH]1)C(=O)N1CCC[C@H]1C(=O)NCC(=O)COC(=O)[C@@H]1CCCN1C(=O)[C@H](CC(=O)O)NC(=O)OCC1c2ccccc2-c2ccccc21?
Answer: potency and selectivity toward CTSK and other cathepsins, in words [1]: very low potency and no selectivity; IC50 [1]: > 5 µM; IC50 [2]: 6.6 µM; IC50 [3]: > 5 µM
